# EPAC1 antag: EPAC1 (human) antagonism; 360,000 compounds, 0.14% hits; AID 720709; EPAC1 GEF assay, Rap1b-BODIPY-GDP exchange fluorescence; Potency, µM (doses to about 115 µM), for the others: at the top dose activity change, negative = inhibition, hits mostly inhibitors;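 also: plate controls were vehicle for no effect and positive control for full effect; nearly all actives have a fitted effect of over 50% in size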
# Rango complex inh: inhibitors of Rango-importin beta complex formation | Q14974 | Rango CFP/YFP FRET sensor + importin beta, 45 min | Potency, µM (highest dose often 92.2 µM), inactives show at the top dose inhibition of complex formation | 340,000 compounds, 0.031% hits | AID 540263; calls by dose curve;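 also: 0% = DMSO wells and 100% = buffer wells lacking importin beta; nearly all actives have a fitted effect of over 15% in size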
#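 FRET biosensor (snurportin 1 IBB flanked by EYFP and cerulean), 50 nM, with compound 5 min, then 0.125 microM importin beta in PBS, 1 mM DTT, 0.02% Tween-20, 0.1% BSA. CFP/YFP ratio read after 45 min at room temperature; pre-read flags interference.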
# Rango dissoc inh: inhibition of RanGTP-driven Rango-importin beta dissociation; Potency, µM (highest dose often 46.1 µM), inactives show at the highest dose activity change, negative = inhibition; 340,000 compounds, 0.071% hits; Biochemical FRET Rango-importin beta, RanGTP-induced dissociation; calls by dose curve; also: % of control where 0% means no effect; nearly all actives have a fitted effect of over 45% in size
#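 Quantitative HTS using a FRET biosensor: 0.1 uM Rango, 0.25 uM importin beta, 0.6 uM Ran, 2 mM GTP, 0.2 uM RCC1 final, PBS with DTT, Tween-20 and BSA. Post-read taken 45 min after Ran addition.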
# EPAC2 antagonist: antagonists of human EPAC2; EPAC2 GEF exchange of Rap1B-BODIPY-GDP, fluorescence; Potency, µM (top dose mostly 114 µM), inactives show at the top dose activity, negative = inhibition, usual class: inhibitors; 360,000 compounds, 0.18% hits; AID 720708; also: % is scaled to controls: 0 for no effect and ±100 for the full control effect; nearly all actives have a fitted effect of over 45% in size
# EPAC2 ag: activates human EPAC2 exchange factor | 360,000 compounds, 0.079% hits | Potency, µM (highest dose often 154 µM), without a hit: at the top dose activation, usual class: activators | EPAC2 activation, biochemical qHTS; response scale: 100% = 6.5 mM cAMP response; also: nearly all actives have a fitted effect of over 50% in size
#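 EPAC2 (100 nM) mixed with Rap1B loaded with BODIPY-GDP (250 nM) plus 50 uM unlabeled GDP; compounds pinned in, 5 min RT, then read every 5 min for 30 min (ex 480, em 540 nm). Normalized to cAMP control.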
# EPAC1 agonist: agonists of human EPAC1. EPAC1 agonist qHTS, biochemical assay; response scale: 100% = response to 6.5 mM cAMP. 360,000 compounds, 0.073% hits. O95398. Potency, µM (highest dose often 154 µM), without a hit: at the highest dose activation, actives largely listed as activators; also: nearly all actives have a fitted effect of over 60% in size
#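 Compounds were pinned as a concentration titration into mixtures of EPAC1 (100 nM), BODIPY-GDP-loaded Rap1B (250 nM) and GDP (50 uM). After 5 min at room temperature, fluorescence was followed for 30 min; activity was scaled to 6.5 mM cAMP.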
# Numbers without * were called inactive; ? = inconclusive; nt = not tested or not shown. Compounds with a hit are over-represented: about 0.43% of the library has one in this group of screens. Unless noted, calls follow the shape of the dose curve; as a rule, active = well fitted curve in the direction sought with a large enough effect; inconclusive = small, poorly fitted or top-dose-only effect, or another doubt; inactive = no such curve, though single readings can be large; an effect the other way counts as inactive or inconclusive. Potency is read from the fitted curve at half-maximal effect.
(1) Cc1oc(-c2ccc(Cl)cc2)nc1CS(=O)CC(=O)NC1CC1 (stereo not given)
(2) CC[n+]1ccccc1/C=C/c1ccc(N(C)C)cc1
(3) CCCCCC[n+]1ccccc1/C=C/c1ccc(N(C)C)cc1
(4) Cc1cc(Nc2ccccc2)n(-c2nc3ccccc3[nH]2)n1
(5) Cc1cc(NC(=O)c2ccccc2F)n(-c2nc3ccccc3[nH]2)n1
(6) CC(=O)Nc1ccc(S(=O)(=O)Nc2nc3ccccc3nc2Nc2ccc(N)cc2)cc1
(7) CC(=O)Nc1ccc(Nc2nc3ccccc3nc2NS(=O)(=O)c2ccc(Cl)c([N+](=O)[O-])c2)cc1
(8) O=c1c2cc([N+](=O)[O-])cc([N+](=O)[O-])c2[nH]n1-c1ccccc1

Screen / compound no. | 1 | 2 | 3 | 4 | 5 | 6 | 7 | 8
EPAC1 antag | -14.5% | ? | 21.3% | -10.3% | -9.4% | ? | ? | ?
Rango complex inh | 1.0% | 8.2µM* | nt | 4.4% | 2.8% | ? | -0.2% | -2.1%
Rango dissoc inh | 1.4% | ? | nt | -5.8% | -10.5% | ? | 6.0% | -0.1%
EPAC2 antagonist | -11.1% | 3.4% | 0.8% | 8.5% | -22.2% | -4.1% | 79.4µM* | 44.7µM*
EPAC2 ag | 1.8% | 9.8% | 6.4% | 6.31µM* | -3.8% | -6.6% | -10.1% | -16.5%
EPAC1 agonist | 2.8% | 5.0% | 12.3% | 7.6% | -0.5% | -10.8% | -17.1% | -11.7%

(9) CCOC(=O)CC1C(=O)NCCN1C(=O)c1ccc(F)cc1F (stereo not given)
(10) CCOC(=O)CC1C(=O)NCCN1C(=O)c1cccc(C(F)(F)F)c1 (stereo not given)
(11) CCOC(=O)COc1ccc(Br)cc1/C=C/c1[nH]c(=O)[nH]c(=O)c1[N+](=O)[O-]
(12) COc1cc(C(=O)NC(C)CCc2ccccc2)cc(OC)c1OC (stereo not given)
(13) CCOC(=O)c1c(CSc2ccccc2)n(C)c2cc(Br)c(OCC(O)CNC(CO)(CO)CO)cc12 (stereo not given)
(14) CCOC(=O)c1c(CSc2ccccc2)n(C)c2cc(Br)c(OC)c(O)c12
(15) Cc1ccc(O)c(CNc2ccc(S(=O)(=O)Nc3nccs3)cc2)c1
(16) CC(=O)Nc1ccc(S(=O)(=O)Nc2nccs2)cc1

Screen / compound no. | 9 | 10 | 11 | 12 | 13 | 14 | 15 | 16
EPAC1 antag | -18.0% | 1.8% | 31.6µM* | -10.2% | -10.9% | 4.1% | -14.6% | -2.1%
Rango complex inh | -1.8% | 0.5% | 3.1% | 3.3% | ? | 2.6% | -0.2% | -0.2%
Rango dissoc inh | -17.0% | 2.2% | -0.9% | 0.3% | -18.1% | -8.6% | -3.6% | 11.5%
EPAC2 antagonist | 0.3% | 20µM* | -4.6% | -2.8% | 39.8µM* | -6.0% | 22.4µM* | -11.0%
EPAC2 ag | -7.8% | 2.8% | 1.8% | 9.3% | ? | 8.5% | 1.8% | -1.7%
EPAC1 agonist | 7.4% | -4.0% | -4.6% | -4.2% | 6.9% | 10.7% | 3.3% | 0.9%

(17) COCCSc1nnc(NC(=O)c2cc(C(=O)OC)cc([N+](=O)[O-])c2)s1
(18) CCOc1ccc2oc(C(=O)N(C)CC(=O)Nc3ccc(OCC)c(OCC)c3)c(C)c2c1
(19) CN1C(=O)[C@@](O)(c2cn(C)c3ccccc23)c2ccccc21
(20) Cc1cc(Br)c2c(c1)[C@](O)(c1cn(C)c3ccccc13)C(=O)N2C
(21) N#Cc1c(Nc2ccccc2)sc(C(=O)c2ccccc2)c1N
(22) C=Cc1ccc(Cn2nc(-c3ccccc3)ccc2=O)cc1
(23) O=C1C=C(N2CCOCC2)c2ccccc2C1=O
(24) CSC[C@H]1CN(Cc2ccccc2)C(=O)[C@@H]1CC(=O)Nc1ccccc1

Screen / compound no. | 17 | 18 | 19 | 20 | 21 | 22 | 23 | 24
EPAC1 antag | 3.0% | -11.1% | 4.7% | -8.0% | 2.6% | -6.8% | 10µM* | -3.7%
Rango complex inh | -2.1% | 0.1% | nt | nt | -0.3% | 0.4% | 1.4% | nt
Rango dissoc inh | -2.6% | -14.9% | nt | nt | -12.9% | 1.0% | -18.5% | nt
EPAC2 antagonist | 2.2% | -12.2% | -5.0% | 22.4µM* | 35.5µM* | 22.4µM* | ? | -2.5%
EPAC2 ag | -1.7% | -0.6% | 3.1% | 5.1% | 1.0% | 2.5% | 22.2% | 6.2%
EPAC1 agonist | 8.9% | 56.2µM* | 10.6% | 2.9% | 3.0% | 8.2% | 3.0% | -2.2%

(25) O=C1CCN2C=Nc3cccc4ccc1c2c34
(26) Cc1ccc(S(=O)(=O)N(CC(=O)NCc2cccs2)c2ccccc2)cc1
(27) Cc1nc2ccccc2c(=O)n1/N=C/c1cc(Br)ccc1O
(28) OCC[C@@H]1C[C@H](O)[C@@H](O)[C@]2(Cc3ccccc3O2)O1
(29) O=S(c1cc(Cl)cc(Cl)c1O)c1cc(Cl)cc(Cl)c1O
(30) Oc1c(Cl)cc(Cl)cc1CNc1nccs1
(31) COc1cc(CCc2ccccc2)c(C(=O)O)c(O)c1CC=C(C)C
(32) COc1cc(CCc2ccccc2)c(C(=O)O)c(O)c1C/C=C(/C)CCC=C(C)C

Screen / compound no. | 25 | 26 | 27 | 28 | 29 | 30 | 31 | 32
EPAC1 antag | 297.3% | ? | -27.0% | -4.3% | 39.8µM* | 5.1% | ? | 50.1µM*
Rango complex inh | ? | -0.4% | ? | -0.1% | nt | -1.3% | 0.0% | 3.2%
Rango dissoc inh | ? | 12.9% | 10.3µM* | 7.8% | nt | ? | 12.7% | 13.5%
EPAC2 antagonist | 284.2% | ? | -9.4% | 10.7% | 37.7µM* | -8.5% | 35.5µM* | ?
EPAC2 ag | 89.1µM* | 4.9% | 3.5% | 8.2% | -6.9% | 3.2% | -19.9% | -12.6%
EPAC1 agonist | 63.1µM* | -21.4% | 0.6% | -25.8% | -5.4% | 1.1% | -17.4% | -15.9%

# Brought forward from above: 2 entries, followed by the next part.
(31) COc1cc(CCc2ccccc2)c(C(=O)O)c(O)c1CC=C(C)C
(32) COc1cc(CCc2ccccc2)c(C(=O)O)c(O)c1C/C=C(/C)CCC=C(C)C
(33) Cc1ccc2cc(CN(CC3CCCO3)C(=S)Nc3ccccc3)c(=O)[nH]c2c1 (stereo not given)
(34) CCSC1=NSC2=NC(=O)/C(=C\c3coc4ccccc4c3=O)C(=N)N12
(35) CC(C)CC1=NN2C(=N)/C(=C\c3coc4ccccc4c3=O)C(=O)N=C2S1
(36) CSCCC(C(=O)O)N1C(=O)c2ccc(C(=O)O)cc2C1=O (stereo not given)
(37) O=C(O)c1ccc2c(c1)C(=O)N(C(Cc1ccccc1)C(=O)O)C2=O (stereo not given)
(38) C=C(C)COC(=O)c1ccccc1C(=O)OCC1(C)CO1 (stereo not given)
(39) CSc1nc(N2CCOCC2)c2c3c(sc2n1)CCCC3
(40) COc1ccc(CNS(=O)(=O)CCNCc2ccco2)cc1
(41) Oc1ccccc1C=Nc1cccc2ccccc12
(42) Oc1cccc(C=Nc2cccc3ccccc23)c1O
(43) COc1ccc(C(C[N+](=O)[O-])c2c(C)[nH]n(-c3ccccc3)c2=O)cc1 (stereo not given)

Screen / compound no. | 31 | 32 | 33 | 34 | 35 | 36 | 37 | 38 | 39 | 40 | 41 | 42 | 43
EPAC1 antag | ? | 50.1µM* | 2.6% | 86.3% | 97.1% | 5.1% | 3.4% | 0.6% | -9.8% | -15.8% | -16.8% | 50.1µM* | -4.8%
Rango complex inh | 0.0% | 3.2% | -3.5% | ? | ? | 0.0% | 6.2% | -2.7% | -0.2% | ? | 4.8% | ? | 1.2%
Rango dissoc inh | 12.7% | 13.5% | 24.6% | ? | ? | -16.2% | 10.1% | 0.5% | -26.4% | -8.7% | 11.8% | -20.5% | 4.0%
EPAC2 antagonist | 35.5µM* | ? | -8.2% | 73.5% | 159.3% | -4.7% | 1.7% | 5.7% | 17.8µM* | 15.9% | -5.5% | 11.6% | 6.9%
EPAC2 ag | -19.9% | -12.6% | -1.6% | 100µM* | 63.1µM* | 10µM* | -3.9% | 5.0% | 2.7% | 7.7% | -2.7% | 11.9% | -0.5%
EPAC1 agonist | -17.4% | -15.9% | -8.0% | 44.7µM* | 63.1µM* | 3.3% | -0.4% | 1.8% | 5.2% | 0.9% | 6.1% | -4.7% | 19.0%

# 2 of these compounds in another layout.
# Fields – EPAC1 antag	Rango complex inh	Rango dissoc inh	EPAC2 antagonist	EPAC2 ag	EPAC1 agonist
43) COc1ccc(C(C[N+](=O)[O-])c2c(C)[nH]n(-c3ccccc3)c2=O)cc1 (stereo not given)
    -4.8%	1.2%	4.0%	6.9%	-0.5%	19.0%
34) CCSC1=NSC2=NC(=O)/C(=C\c3coc4ccccc4c3=O)C(=N)N12
    86.3%	?	?	73.5%	100µM*	44.7µM*
